This is an account of results in paper PMC3147153 (Clinical cancer research : an official journal of the …, 2009).

The nature of this series: Whole blood pharmacokinetics, LC-MS/MS, noncompartmental analysis. The conditions noted are these: human, iv, 12.5 mg. In kind it is in vivo, patients.

What is called half-life is the time in which the quantity being followed falls by half.

`CO[C@H]1C[C@@H]2CC[C@@H](C)[C@@](O)(O2)C(=O)C(=O)N2CCCC[C@H]2C(=O)O[C@H]([C@H](C)C[C@@H]2CC[C@@H](OP(C)(C)=O)[C@H](OC)C2)CC(=O)[C@H](C)/C=C(\C)[C@@H](O)[C@@H](OC)C(=O)[C@H](C)C[C@H](C)/C=C/C=C/C=C/1C` [deforolimus] gave a half-life of 47 h.
